{"source": "patent US4277498A", "about": "“Amides” (Burroughs Wellcome Co., priority 1976, dated 1981)", "assay": "in vivo", "conditions": "mouse, po, mice, p.o. as salt in saline, deaths within two days", "procedure": "Several groups of mice were treated with specific doses of compounds of formula (I) as orally administered salts in saline solution. After treatment of each group with a different dose of a specific compound the number of mice dead in each group within two days was noted. […] The LD50 value is the lethal dose required to kill half of the treated animals.\nThe procedure was repeated with other groups of mice for other compounds of formula (I).", "data": [{"smiles": "CCCCCC(C)(C)NC(=O)CN.O=C(O)CCC(=O)O", "note": "[Example 2, hydrogen succinate, 2-Amino-N-(1,1-dimethylhexyl)acetamide hydrogen succinate]", "values": [{"measurement": "LD50 at 48 h", "value": 571, "unit": "mg/kg"}]}]}
